This is an account of results in patent US5380713A, “Peptide aldehydes as antithrombotic agents” (Bristol-Myers Squibb Company, priority 1994, dated 1995).

Amino acid sequences for entries named in this document (tags omitted). Residues count along the entry.
UniProt P00760, 24-246 limits assumed: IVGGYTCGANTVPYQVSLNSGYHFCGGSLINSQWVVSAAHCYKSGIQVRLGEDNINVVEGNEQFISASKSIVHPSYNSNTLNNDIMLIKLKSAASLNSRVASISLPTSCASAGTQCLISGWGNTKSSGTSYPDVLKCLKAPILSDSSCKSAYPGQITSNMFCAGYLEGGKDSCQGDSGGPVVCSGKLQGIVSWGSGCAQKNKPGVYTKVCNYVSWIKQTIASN

The target in experiment [1] is T1, human α-thrombin (Homo sapiens, UniProt P00734). The experiment can be described thus: Enzyme assay for the inhibition of thrombin (s-2238 chromogenic substrate). The note with it: read-out: IC50 thrombin, incubation of drug with enzyme for 3 minutes, room temperature. The method, then: 1. Enzyme Assays for the Inhibition of Thrombin
Thrombin assay buffer: 145 mM NaCl, 5 mM KCl, 30 mM N-2-hydroxyethyl piperazine-N'-2-ethanesulfonic acid, pH 7.4, 1 mg/ml polyethylene glycol (PEG-8000).
3 mM D-Phe-Pip-Arg-p-nitroanilide (s-2238) in H2 O
3 U/ml purified human α-thrombin dissolved in thrombin assay buffer.
Inhibitors to be tested were dissolved in H2 O, methanol, or DMSO just prior to use.
To each well in a 96-well microtiter plate, 270 μl of assay buffer was added. Human α-thrombin (10 μl of 3 U/ml) was added, then 10 μl of inhibitor were added and mixed. The samples were incubated at room temperature for a defined period of time (3 minutes for initial IC50 determinations). The enzymatic reaction was started with 10 μl of 3 mM s-2238 substrate and continued at room temperature. The change in optical density was measured at 405 nm. A kinetic microplate reader (Molecular Devices Corporation .upsilon.max) was used to measure the change in optical density over time.
(§1) Results are reported in Table I as IC50 values, i.e., the drug concentration in mole/liter which caused 50% inhibition of the enzyme activity (after incubation of the drug with the enzyme for 3 minutes).

Experiment [2] deals with T1, human α-thrombin. The experiment in a line: Concentration required for doubling thrombin clotting time in human plasma. To be noted: concentration of drug which caused a doubling of the thrombin clotting time in human plasma. The method, then: Procedure for Determining the Concentration Required for Doubling Thrombin Clotting Time--Clotting Time Assays
Owren's Veronal Buffer: 125 mM NaCl, 28.4 mM sodium barbital, pH 7.35.
Human citrated plasma obtained from human volunteers or citrated plasma obtained from dosed animals (prepared as described below).
25 NIH Units/ml human α-thrombin in thrombin buffer for use with rat plasma. 10 NIH Units/ml human α-thrombin in thrombin buffer for use with human plasma.
Human Plasma: Blood from human volunteers was drawn into vacutainer tubes containing one tenth final volume of 0.129M (3.8%) buffered citrate (16 mg Sodium Citrate 2H2 O and 2.1 mg citric acid per milliliter of H2 O). The blood was centrifugated at 3500 rpm (480 xg) for 15 minutes at room temperature (using a Sorvall RT 6000B centrifugate). The plasma was removed, pooled, and aliquoted into small tubes which were stored frozen for later use.
Clotting times were determined by pipetting 0.1 ml of Owren's buffer (pre-warmed to 37° C.) and 0.1 ml of human or rat plasma into yellow sample cuvettes. For studies with human plasma 10 U/ml human thrombin (10 ml) was placed in the reservoir assembly station of the MLA 700. (Medical Laboratory Automation, Electra 700 Reservoir Assembly). For rat studies, the human thrombin concentration was 25 U/ml. The cuvettes were vortexed and then placed on the MLA 700 sample wheel. The coagulation timer (MLA 700) automatically dispenses 0.1 ml human thrombin into the sample in each cuvette. Detection of the fibrin clot was determined optically by the MLA 700.
Studies were performed to determine the concentration of drug which caused a doubling of the clotting time (DTT) in human plasma. From standard curves of thrombin activity added to the sample versus the clotting time, the concentration of drug which caused a doubling of the thrombin clotting time corresponded to inhibition of approximately 1/2 of the added thrombin clotting activity.

In experiment [3] the target is bovine pancreatic trypsin (Bos taurus, UniProt P00760). The experiment in a line: Enzyme assay for the inhibition of trypsin (Z-Val-Gly-Arg-pNA substrate). The note with it: read-out: IC50 Trypsin, incubation of drug with enzyme for 3 minutes, room temperature. The method, then:
2. Enzyme Assays for the Inhibition of Trypsin
Trypsin assay buffer: 2 mM CaCl2, 50 mM Tris/Cl pH 8.0.
3 mM Z-Val-Gly-Arg-pNA (Chromzyme TRY) dissolved in water.
6 μg/ml of purified bovine pancreatic trypsin dissolved in trypsin assay buffer.
Inhibitors to be tested were dissolved in H2 O, methanol or DMSO just prior to use.
To each well in a 96-well microtiter plate, 270 μl of assay buffer was added. Bovine trypsin (10 μg/ml) was added. Inhibitor (10 μl) was added, mixed, and then incubated at room temperature for 3 minutes. The enzymatic reaction was started with 10 μl of 3 mM Z-Val-Gly-Arg-pNA substrate. The change in optical density was measured at 405 nm at room temperature. A kinetic microplate reader (Molecular Devices Corporation .upsilon.max) was used to measure the change in optical density over time.
as §1

Read-outs that look alike come from different tables or passages of the source.

Turning to `N=C(N)NCCCC(C=O)NC(=O)C1CCCN1C(=O)COc1ccccc1` (stereo not drawn), the half-maximal inhibitory concentration (IC50) in experiment [1] (tested form: HCl) worked out at 840 nM; in experiment [3] (tested form: HCl), 24 nM. This compound also came in with a DCT in experiment [2] (tested form: HCl) of 1.0 µM.
For `N=C(N)NCCCC(C=O)NC(=O)C1CCCN1C(=O)Cc1ccccc1` (stereo not drawn), in that order: 590 nM, 18 nM and 0.75 µM.
Consider `CC(C)(C)OC(=O)N1CCCC1C(=O)NC(C=O)CCCNC(=N)N` (stereo not drawn), for which, in experiment [1] (tested form: HCl), the half-inhibitory concentration (IC50) came to 150000 nM. This compound showed a DCT in experiment [2] (tested form: HCl) of 45 µM.
The matching figures for `N=C(N)NCCCC(C=O)NC(=O)C1CCCN1CCCC1CCCCC1` (stereo not drawn): 56000 nM and 75 µM.
Consider `N=C(N)NCCCC(C=O)NC(=O)C1CCCN1C(=O)CNC1Cc2ccccc2C1` (stereo not drawn), for which, in experiment [1] (tested form: HCl), the IC50 amounted to 400 nM.
Take `N=C(N)NCCCC(C=O)NC(=O)C1CCCN1C(=O)CC(N)c1ccccc1` (stereo not drawn): the IC50 in experiment [1] (tested form: HCl) turned out to be 290 nM; in experiment [3] (tested form: HCl), 30 nM. In experiment [2] (tested form: HCl), this compound gave a DCT of 0.5 µM.
For `N=C(N)NCCCC(C=O)NC(=O)C1CCCN1C(=O)[C@@H](Cc1ccccc1)NC(=N)N` (stereo partly drawn), in that order: 110 nM, 200 nM and 0.5 µM.
With `Cc1ccc(S(=O)(=O)NC(C=O)CCCNC(=N)N)cc1` (stereo not drawn), the IC50 in experiment [1] (tested form: HCl) stood at 150000 nM. The DCT in experiment [2] (tested form: HCl) was determined as 150 µM.
Turning to `N=C(N)NCCCC(C=O)NC(=O)C1CCCN1C(=O)CCc1ccc(O)cc1` (stereo not drawn), the figures for the half-inhibitory concentration (IC50) in experiment [1] (tested form: HCl) and in experiment [3] (tested form: HCl) were 1170 nM and 130 nM, respectively. In addition, in experiment [2] (tested form: HCl), the DCT came to 1.5 µM.
The matching figures for `N=C(N)NCCCC(C=O)NC(=O)C1CCCN1C(=O)[C@H](N)Cc1ccc(O)cc1` (stereo partly drawn): 7040 nM, 130 nM and 5.0 µM.
For `N=C(N)NCCCC(C=O)NC(=O)C1CCCN1C(=O)CCc1ccncc1` (stereo not drawn), in that order: 1170 nM, 98 nM and 1.0 µM.
Take `N=C(N)NCCCC(C=O)NC(=O)C1CCCN1C(=O)[C@@H](Cc1ccccc1)NC(=O)CN` (stereo partly drawn): the IC50 was 80 nM in experiment [1] (tested form: HCl) and 1200 nM in experiment [3] (tested form: HCl). Moreover, the DCT in experiment [2] (tested form: HCl) stood at 0.1 µM.
For the compound `N=C(N)NCCCC(C=O)NC(=O)C1CCCCN1C(=O)CCc1ccccc1` (stereo not drawn), the IC50 in experiment [1] (tested form: HCl) stood at 1300 nM; in experiment [3] (tested form: HCl), 100 nM.
Turning to `N=C(N)NCCCC(C=O)NC(=O)[C@H](N)Cc1ccccc1` (stereo partly drawn), the 50% inhibitory concentration (IC50) in experiment [1] (tested form: HCl) was above 200000 nM. This compound displayed a DCT in experiment [2] (tested form: HCl) above 200 µM.
On to `N=C(N)NCCCC(C=O)NC(=O)c1cccc(NC(=O)CCc2ccccc2)c1` (stereo not drawn), for which the 50% inhibitory concentration (IC50) in experiment [1] (tested form: HCl) was found to be 20000 nM.
The compound `N=C(N)NCCCC(C=O)NC(=O)C1CCCCN1C(=O)[C@H](N)Cc1ccccc1` (stereo partly drawn) had a DCT in experiment [2] (tested form: HCl) of 0.28 µM. In addition, the half-inhibitory concentration (IC50) in experiment [3] (tested form: HCl) was 100 nM.
Turning to `N=C(N)NCCCC(C=O)NC(=O)C1CCCN1C(=O)CCc1ccccc1` (stereo not drawn), the values for the half-inhibitory concentration (IC50) in experiment [1] (tested form: HCl) and in experiment [3] (tested form: HCl) were 390 nM and 24 nM, respectively. The same compound had a DCT in experiment [2] (tested form: HCl) of 0.4 µM.
The matching figures for `N=C(N)NCCCC(C=O)NC(=O)C1CCCN1C(=O)CCC1CCCCC1` (stereo not drawn): 150 nM, 18 nM and 0.3 µM.
The matching figures for `CC(NC(=O)[C@H](N)Cc1ccccc1)C(=O)NC(C=O)CCCNC(=N)N` (stereo partly drawn): 150 nM, 110 nM and 1.0 µM.
Regarding `N=C(N)NCCCC(C=O)NC(=O)C1CCCN1C(=O)CC(NC(=O)CC(N)c1ccccc1)c1ccccc1` (stereo not drawn), the half-inhibitory concentration (IC50) in experiment [1] (tested form: HCl) was 4690 nM. Further, in experiment [2] (tested form: HCl), the DCT is 3.0 µM.
As for `N=C(N)NCCCC(C=O)NC(=O)C1CCCN1C(=O)C(CN)Cc1ccccc1` (stereo not drawn), the IC50 in experiment [1] (tested form: HCl) worked out at 1760 nM; in experiment [3] (tested form: HCl), 260 nM. The DCT in experiment [2] (tested form: HCl) worked out at 2.0 µM.
The matching figures for `N=C(N)NCCCC(C=O)NC(=O)C1CCCN1C(=O)c1cc2ccccc2[nH]1` (stereo not drawn): 1760 nM, 74 nM and 2.5 µM.
As to `N=C(N)NCCCC(C=O)NC(=O)C1CCCN1C(=O)c1ccccc1` (stereo not drawn), the values for the IC50 in experiment [1] (tested form: HCl) and in experiment [3] (tested form: HCl) were 4690 nM and 24 nM, respectively. The DCT in experiment [2] (tested form: HCl) came out at 4.0 µM.
Consider `N=C(N)NCCCC(C=O)NC(=O)C1CCCN1C(=O)CCc1cccs1` (stereo not drawn), for which the IC50 in experiment [1] (tested form: HCl) was 590 nM; in experiment [3] (tested form: HCl) it was 24 nM. Besides, the DCT in experiment [2] (tested form: HCl) was found to be 0.5 µM.
Regarding `N=C(N)NCCCC(C=O)NC(=O)Cn1c(N)nc(-c2ccccc2)c1-c1ccccc1` (stereo not drawn), the IC50 in experiment [1] (tested form: HCl) was 7900 nM.
Take `N=C(N)NCCC[C@@H](C=O)NC(=O)CNC(=O)CCc1ccccc1`: the IC50 came out at 18800 nM in experiment [1] (tested form: HCl hydrate) and 190 nM in experiment [3] (tested form: HCl hydrate). Also, in experiment [2] (tested form: HCl hydrate), the DCT is 15 µM.
Turning to `N=C(N)NCCCC(C=O)NC(=O)C1CCCN1C(=O)CNS(=O)(=O)c1cccc2c1NCCC2` (stereo not drawn), the IC50 in experiment [1] (tested form: HCl) was determined as 60 nM.
With `N=C(N)NCCCC(C=O)NC(=O)C1CCCN1C(=O)CCCc1ccccc1` (stereo not drawn), the IC50 in experiment [1] (tested form: HCl) was 880 nM; in experiment [3] (tested form: HCl), 24 nM. The compound further yielded a DCT in experiment [2] (tested form: HCl) of 0.5 µM.

Usually IC50 stands for the concentration that inhibits the measured activity by half.
